Assay results reported in PubChem BioAssay AID651702 (NMMLSC, 2012).
The list shows a part of the results, in another mix than the full data. The source made the active and inactive calls.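 How the source made its calls: active means inhibition above about 55% (limit read from the data); inconclusive means no clear call, values can overlap the other calls; inactive means the rest.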

Experiment: LAMP-1 surface exposure blockers, TALL-104 cells – cell-based, flow cytometry, MLPCN library, primary screen (AID 651702)
Details: TALL-104 LAMP-1 surface exposure, at 10 µM, active compounds read high, cells stimulated with thapsigargin and PMA

Question: With `COc1cc(I)ccc1[As](=O)(O)O` as the molecule, how does the inhibition read?
Answer: The inhibition was inactive: -7.3%.
